The test system of the series is M-1 (murine rhabdomyosarcoma) tumor. The class given is in vivo, DBA/2 mice. The conditions noted are these: for tumor eradication / tumor palpability: light 15 min post injection. The procedure: BPD-MA was synthesized as described in U.S. Pat. No. 4,920,143 and 4,883,790, incorporated herein by reference. BPD-MA was obtained from QuadraLogic Technologies, Inc. and stored dissolved in DMSO (4.5 mg/ml) at -70° C. Liposomal BPD (4.95 mg/ml) was prepared as described in U.S. application Ser. No. 07/832,542, filed Feb. 5, 1992. The following formula was used: […]
Liposomal BPD was dried and stored frozen at -20° C. in 1 ml aliquots. The appropriate number of aliquots were thawed immediately before use and diluted with 5% dextrose in water for injection into the animals.
Male DBA/2 mice (7-11 weeks old; Charles River Laboratories, St. Constant, Quebec, Canada) were used in these studies, unless otherwise specified. Shaving and depilation removed the hair very effectively from appropriate body surfaces. The mice were shaved and depilated with a commercially available depilator (Nair®) at least one day before being used in the experiments. Following injection the mice were kept in the dark for various lengths of time, as described below. Before and after the experiments the mice were kept in an animal facility with 12 hours of light and 12 hours of dark daily.
An argon pumped dye laser, whose power source was obtained from Spectra Physics (Series 2000, Mountain View, Calif.) and whose 5W argon ion pumped dye laser was obtained from Coherent (Model 599, Palo Alto, Calif.) was used to deliver a columnated beam of light having a wavelength of 690 (±3) nm. The argon laser was aimed at the skin to irradiate the tumor. The time of light exposure was varied to give different light doses, such as 50, 75 and 100 Joules/cm^2.
DBA/2 mice (weight 22±1 g) were used in this study. First, mice were injected in the flank with M-1 (murine rhabdomyosarcoma) tumor cells and the tumors were allowed to grow to about 5mm in diameter, according to the protocol of Richter et al., Br. J. Cancer (1991) 63:87-93. Mice were injected with liposomal BPD-MA and kept in the dark for 15 minutes before exposure to light. The mice were then treated with the laser.

Where [1] appears, read: 0.5 mg/kg BPD-MA, 75 J/cm^2, 24 hours (FIG. 2).
Setting [2] is: 1 mg/kg BPD-MA, 100 J/cm^2, 48 hours (FIG. 1).

Read-outs that look alike come from different tables or passages of the source.

Regarding “benzoporphyrin derivative monoacid ring A [BPD-MA]”, under setting [1], the tumor eradication result is “the tumor was eradicated” and the tumor palpability result was “The tumor was not palpable”. In addition, under setting [2], the tumor eradication result was “the tumor was eradicated” and the tumor palpability entry is given as “The tumor was not palpable”. Moreover, for the setting “both animals (FIGS. 1 and 2), followed two weeks”, the tumor regrowth entry is “The tumors did not grow back”. Under “mouse, in vivo”, the “skin damage, comparison of FIG. 2 with FIGS. 1 and 3” value is “reduction in skin damage”; the skin healing entry was “flat, healing area of skin”.
